Experiment [1] concerns the target T1, β-catenin V511S/I569S double mutant/Tcf4 (Homo sapiens, UniProt P35222, I569S/V511S).
T1 construct: Wild-type β-catenin and its mutants (residues 138-686) were cloned; 6xHis; made in house; host or cells: E. coli BL21 DE3
As to the kind of experiment: FP competitive inhibition assay, V511S/I569S mutant. The conditions noted are these: site-directed mutagenesis study, wild-type Tcf4, read-out: Ki ± SD V511S/I569S β-catenin. It counts as binding.

Amino acid sequences for entries named in this document (tags omitted). Residues count along the entry.
UniProt P35222, 138-686 V511S/I569S: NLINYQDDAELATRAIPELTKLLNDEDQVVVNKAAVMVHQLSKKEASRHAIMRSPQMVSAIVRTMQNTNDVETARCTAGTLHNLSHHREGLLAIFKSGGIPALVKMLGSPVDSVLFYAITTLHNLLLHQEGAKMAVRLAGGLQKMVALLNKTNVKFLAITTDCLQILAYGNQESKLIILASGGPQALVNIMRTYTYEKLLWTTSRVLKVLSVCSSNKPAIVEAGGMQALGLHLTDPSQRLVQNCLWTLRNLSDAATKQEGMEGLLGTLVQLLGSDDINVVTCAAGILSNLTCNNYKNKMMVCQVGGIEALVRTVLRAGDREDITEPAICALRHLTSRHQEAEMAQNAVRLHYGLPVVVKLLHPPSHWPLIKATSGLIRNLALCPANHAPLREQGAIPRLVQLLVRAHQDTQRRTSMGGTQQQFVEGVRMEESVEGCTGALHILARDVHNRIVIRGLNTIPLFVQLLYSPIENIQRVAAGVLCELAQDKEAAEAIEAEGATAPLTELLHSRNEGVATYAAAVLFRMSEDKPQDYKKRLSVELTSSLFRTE
UniProt P35222, 138-686: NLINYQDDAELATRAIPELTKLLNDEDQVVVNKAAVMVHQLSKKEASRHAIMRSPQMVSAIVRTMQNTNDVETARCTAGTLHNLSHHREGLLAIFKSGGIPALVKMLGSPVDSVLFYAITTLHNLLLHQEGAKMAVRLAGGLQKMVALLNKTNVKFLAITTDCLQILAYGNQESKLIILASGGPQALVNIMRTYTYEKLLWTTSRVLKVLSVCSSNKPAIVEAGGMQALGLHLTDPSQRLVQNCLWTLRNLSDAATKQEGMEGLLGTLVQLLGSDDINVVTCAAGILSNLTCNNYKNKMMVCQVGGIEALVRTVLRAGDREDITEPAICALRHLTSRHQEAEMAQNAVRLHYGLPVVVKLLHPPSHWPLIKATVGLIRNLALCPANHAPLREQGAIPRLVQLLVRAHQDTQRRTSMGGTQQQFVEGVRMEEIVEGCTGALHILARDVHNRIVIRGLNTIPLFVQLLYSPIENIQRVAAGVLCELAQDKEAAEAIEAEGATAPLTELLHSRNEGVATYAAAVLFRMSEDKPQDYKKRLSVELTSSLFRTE

For experiment [2], the target named is β-catenin/Tcf4 PPI (Homo sapiens, UniProt P35222). The conditions noted are these: read-out: Ki ± SD AlphaScreen; Table 8, resynthesized 18 and derivatives.
Experiment [3] deals with β-catenin/Tcf4 (Homo sapiens, UniProt P35222). In words: biochemical.
The target in experiment [4] is β-catenin/APC-R3 (Homo sapiens, UniProt P35222). As to the kind of experiment: FP selectivity assay, β-catenin/APC-R3.
Experiment [5] concerns the target β-catenin/E-cadherin (Homo sapiens, UniProt P35222). In words: FP selectivity assay, β-catenin/E-cadherin.
In experiment [6] the test system is SW480 cells. As to the kind of experiment: MTs cell viability assay, SW480. It is filed as cell-based, human. The note with it: result in words.
Experiment [7] relates to HCT116 cells. In words: MTs cell viability assay, HCT116. The note with it: result in words. It counts as cell-based, human.

Turning to `O=C(O)CCCn1c2ccccc2c2nc3nonc3nc21` [Compound 33, 4-(5H-[1,2,5]Oxadiazolo[3′,4′:5,6]Pyrazino[2,3-B]Indol-5-yl)Butanoic Acid], the Ki in experiment [1] came out at 59 ± 4.2 µM; in experiment [2], 1 ± 0.13 µM; in experiment [3], 15 ± 5.3 µM; in experiment [4], 340 ± 25 µM; in experiment [5], 170 ± 26 µM.

For the compound `N#CCCn1c2ccccc2c2nc3nonc3nc21` [Compound 35, 3-(5H-[1,2,5]Oxadiazolo[3′,4′:5,6]Pyrazino[2,3-B]Indol-5-yl)Propanenitrile], the “growth of SW480 cells” value in experiment [6] is given as “inhibited”. Also, the “growth of HCT116 cells” value in experiment [7] is reported as “not”.
